Targets include DRB1*0101 (Homo sapiens, UniProt P01903+P01911, A100R/D57E/F55L/F60I/F76Y/I96L/L162R/M171V/P40L/Q125E/R42F/V115G/Y59C); DRB1*0404 (Homo sapiens, UniProt P01903+P01911, A100R/A169T/F76Y/I96L/K127E/L162R/M171V/N62H/P40V/Q125Y/R42H/S133A/S149N/S66Y/V209L/W38E); DRB1*0701 (Homo sapiens, UniProt P01903+P01911, A100R/A102G/A103Q/D57E/D86V/E43K/F76Y/K127E/L162R/M171V/P40G/Q125H/Q99D/R33Q/R42Y/R54Q/S133A/S66F/T210M/V115G/Y107V/Y59L/Y89S); DRB1*0802 (Homo sapiens, UniProt P01903+P01911, A100R/A103L/A169T/F76Y/H45Y/I96F/K41T/L162R/M171V/P40S/Q125H/Q178H/Q39Y/Q99D/R218S/R42G/S66Y/V115G/W38E); DRB1*0901 (Homo sapiens, UniProt P01903+P01911, A100R/A103E/D57H/D86V/F55Y/F60I/F76Y/I96F/K127E/L162R/M171V/P40D/Q125H/Q99R/R33Q/R42F/S133A/S66N/T210M/V115G/W38K/Y107V/Y59G/Y89S); DRB1*1302 (Homo sapiens, UniProt P01903+P01911, A100E/A169T/K41T/L162R/M171V/P40S/Q125H/Q178H/Q39Y/Q99D/R42S/S66N/T262R/V115G/W38E/Y61H); DRB1*1501 (Homo sapiens, UniProt P01903+P01911); DRB4*0101 (Homo sapiens, UniProt P01903+P13762, G164S); DRB5*0101 (Homo sapiens, UniProt P01903+Q30154); DRB1*0301 (Homo sapiens, UniProt P01903+P01911, A100K/A102G/A103R/A169T/F55Y/I96L/K41T/L162R/M171V/P40S/Q125H/Q178H/Q39Y/R42S/S66N/T106N/T262R/W38E/Y61H); DRB1*0401 (Homo sapiens, UniProt P01903+P01911, A100K/A169T/F76Y/I96L/K127E/L162R/M171V/N62H/P40V/Q125Y/R42H/S133A/S149N/S66Y/V115G/V209L/W38E); DRB1*0405 (Homo sapiens, UniProt P01903+P01911, A100R/A169T/D86S/F76Y/I96L/K127E/L162R/M171V/N62H/P40V/Q125Y/R42H/S133A/S149N/S66Y/V115G/V209L/W38E); DRB1*1101 (Homo sapiens, UniProt P01903+P01911, A100R/A169T/A87E/I96F/K41T/L162R/M171V/P40S/Q125H/Q178H/Q39Y/Q99D/R42S/S66Y/T262R/V115G/W38E).

The chains behind the UniProt entries cited, without tags or fusion partners. Where a name states a change or a piece, a line headed by the entry shows the natural chain unless it says otherwise. Residues count along the entry.
UniProt Q30154, 30-266: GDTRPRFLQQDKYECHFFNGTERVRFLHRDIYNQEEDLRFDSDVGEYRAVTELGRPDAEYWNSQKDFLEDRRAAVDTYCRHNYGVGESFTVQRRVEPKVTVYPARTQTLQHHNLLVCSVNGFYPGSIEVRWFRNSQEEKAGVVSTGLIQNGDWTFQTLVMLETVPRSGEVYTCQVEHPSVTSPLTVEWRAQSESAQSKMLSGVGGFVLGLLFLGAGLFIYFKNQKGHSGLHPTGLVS

Assay in all cases: biochemical
Common to all, as to type: binding

Where [1] appears, read: read-out: Binding Affinity (nM) DRB5*0101.
The mark [2] stands for this setting: competitive inhibition of radiolabeled standard peptide, DRB1*0901, read-out: Binding Affinity (nM) DRB1*0901.
Where [3] appears, read: read-out: Binding Affinity (nM) DRB1*1101.
Where [4] appears, read: competitive inhibition of radiolabeled standard peptide, DRB1*1302, read-out: Binding Affinity (nM) DRB1*1302.
Where [5] appears, read: read-out: Binding Affinity (nM) DRB1*0404.
The mark [6] stands for this setting: competitive inhibition of radiolabeled standard peptide, '-' distinct from ND, read-out: Binding Affinity (nM) DRB1*0901.
[7] abbreviates: competitive inhibition of radiolabeled standard peptide, '-' distinct from ND, read-out: Binding Affinity (nM) DRB1*1302.

SMILES strings stand for the structures. Where two headings read alike, the source gives them in different places. Some results are limits rather than exact numbers.

Consider `CC[C@H](C)[C@H](NC(=O)[C@@H](NC(=O)[C@H](CCCNC(=N)N)NC(=O)[C@H](CC(=O)O)NC(=O)[C@H](C)NC(=O)[C@H](CCCCN)NC(=O)[C@H](Cc1ccccc1)NC(=O)[C@@H](N)CC(N)=O)C(C)C)C(=O)N[C@@H](CC(=O)O)C(=O)N1CCC[C@H]1C(=O)N[C@@H](CCCNC(=N)N)C(=O)N[C@@H](CCCNC(=N)N)C(=O)N[C@@H](CS)C(=O)N[C@@H](CC(C)C)C(=O)N[C@@H](CCCCN)C(=O)O` [NS3 417-431], for which the IC50 on DRB1*0101 worked out at 1740 nM; at DRB1*0404, 18500 nM; at DRB1*0701, 7.91 µM; on DRB1*0802, 16100 nM; against DRB1*0901 it was 13300 nM; on DRB1*1302, 4670 nM. The IC50 is 3080 nM against DRB1*1501, more than 20000 nM on DRB4*0101 (read-out: Binding Affinity (nM) DRB4*0101) and 4780 nM at DRB5*0101.

For `CC[C@H](C)[C@H](NC(=O)CNC(=O)[C@@H](NC(=O)[C@H](C)NC(=O)[C@@H](NC(=O)[C@H](CS)NC(=O)[C@@H](N)CO)[C@@H](C)CC)[C@@H](C)CC)C(=O)N[C@H](C(=O)N[C@H](C(=O)N[C@@H](CC(C)C)C(=O)N[C@@H](Cc1ccc(O)cc1)C(=O)N[C@@H](CC(C)C)C(=O)NCC(=O)N[C@@H](C)C(=O)N[C@H](C(=O)N[C@H](C(=O)N[C@@H](CCC(N)=O)C(=O)N[C@@H](C)C(=O)O)C(C)C)C(C)C)[C@@H](C)O)[C@@H](C)CC` [Envelope 476-493], the IC50 was found to be 4.55 µM against DRB1*0301; 8200 nM at DRB1*0404; 3.06 µM at DRB1*0701; 1660 nM against DRB1*0802; 1730 nM against DRB1*0901; 1320 nM on DRB1*1302. In addition, the values for the IC50 against DRB1*1501, against DRB4*0101 and on DRB5*0101 (setting [1]) were 2270 nM, 6290 nM and more than 20000 nM, respectively.

In the case of `CC[C@H](C)[C@H](NC(=O)[C@H](Cc1c[nH]c2ccccc12)NC(=O)[C@H](CCC(=O)O)NC(=O)[C@@H](N)CC(N)=O)C(=O)N[C@H](C(=O)N[C@@H](CC(=O)O)C(=O)N[C@@H](Cc1ccccc1)C(=O)N[C@@H](C)C(=O)NCC(=O)N[C@@H](CCCCN)C(=O)N[C@H](C(=O)N[C@H](C(=O)N[C@@H](Cc1c[nH]c2ccccc12)C(=O)N[C@@H](Cc1ccccc1)C(=O)N[C@H](C(=O)O)C(C)C)C(C)C)[C@@H](C)O)[C@@H](C)O` [NS3 349-363], the IC50 against DRB1*0101 was 1670 nM; on DRB1*0301, 6.89 µM; against DRB1*0401, 1140 nM; at DRB1*0404, 8120 nM; at DRB1*0405 it was 16300 nM; on DRB1*0701 it was 3.3 µM. Moreover, the IC50 is 2500 nM at DRB1*0802; 8480 nM on DRB1*0901 (setting [2]); more than 20000 nM at DRB1*1101 (setting [3]); more than 20000 nM at DRB1*1302 (setting [4]); 608 nM at DRB1*1501; more than 20000 nM at DRB5*0101 (setting [1]).

As to `CC[C@H](C)[C@H](NC(=O)[C@H](CCC(=O)O)NC(=O)CNC(=O)[C@H](CCCNC(=N)N)NC(=O)[C@H](CCCCN)NC(=O)[C@H](CC(C)C)NC(=O)CNC(=O)[C@H](CCC(=O)O)NC(=O)[C@H](CCCCN)NC(=O)[C@H](C)NC(=O)[C@H](CCC(=O)O)NC(=O)[C@@H](N)[C@@H](C)O)C(=O)N[C@H](C(=O)N[C@@H](Cc1c[nH]cn1)C(=O)N[C@@H](Cc1c[nH]cn1)C(=O)N[C@@H](C)C(=O)N[C@H](C(=O)O)C(C)C)[C@@H](C)O` [NS5 39-55], the IC50 against DRB1*0101 was 12000 nM; against DRB1*0301, 2.65 µM; against DRB1*0401 it was 3250 nM; on DRB1*0404 (setting [5]) it was more than 20000 nM; on DRB1*0405 (read-out: Binding Affinity (nM) DRB1*0405), more than 20000 nM; on DRB1*0701, 17.5 µM. Besides, the IC50 is 3630 nM at DRB1*0802; 16300 nM at DRB1*0901 (setting [2]); 8640 nM on DRB1*1101; more than 20000 nM at DRB1*1302 (setting [4]); 3160 nM against DRB1*1501; more than 20000 nM on DRB5*0101 (setting [1]).

Take `CC[C@H](C)[C@H](NC(=O)[C@@H]1CCCN1C(=O)[C@H](CCCCN)NC(=O)[C@@H](NC(=O)[C@@H](NC(=O)[C@H](CS)NC(=O)[C@@H](N)CC(=O)O)C(C)C)C(C)C)C(=O)N[C@@H](CC(=O)O)C(=O)N[C@@H](CC(=O)O)C(=O)N[C@@H](CCCNC(=N)N)C(=O)N[C@@H](Cc1ccccc1)C(=O)N[C@@H](C)C(=O)N[C@@H](CC(N)=O)C(=O)N[C@@H](C)C(=O)N[C@@H](CC(C)C)C(=O)N[C@@H](CC(C)C)C(=O)N[C@@H](C)C(=O)O` [NS5 664-680]: the IC50 on DRB1*0301 was 6.87 µM; against DRB1*0404 it was 5010 nM; on DRB1*0701, 3.94 µM; against DRB1*0901, 3600 nM; against DRB1*1101, 5080 nM; at DRB4*0101, 1550 nM. Further, the IC50 at DRB5*0101 (setting [1]) was more than 20000 nM.

As for `CC[C@H](C)[C@H](NC(=O)[C@@H](NC(=O)[C@H](CC(C)C)NC(=O)[C@H](CC(N)=O)NC(=O)[C@H](CCCNC(=N)N)NC(=O)[C@H](CCCCN)NC(=O)[C@H](CCCCN)NC(=O)[C@H](Cc1ccccc1)NC(=O)[C@H](CCSC)NC(=O)[C@H](CCC(=O)O)NC(=O)[C@@H](N)CCC(=O)O)[C@@H](C)O)C(=O)N[C@@H](CCSC)C(=O)N[C@@H](CC(=O)O)C(=O)N[C@@H](CC(C)C)C(=O)N[C@@H](Cc1c[nH]cn1)C(=O)O` [NS3 181-195], the IC50 was more than 20000 nM on DRB1*0101 (read-out: Binding Affinity (nM) DRB1*0101); 15.2 µM against DRB1*0301; 12600 nM on DRB1*0401; 7810 nM against DRB1*0404; 7490 nM on DRB1*0405; 6.26 µM against DRB1*0701. For the same compound, the IC50 was more than 20000 nM at DRB1*0802 (read-out: Binding Affinity (nM) DRB1*0802); 10100 nM on DRB1*0901 (setting [6]); 336 nM at DRB1*1101; 9320 nM at DRB1*1302 (setting [7]); 891 nM at DRB1*1501; more than 20000 nM at DRB5*0101 (setting [1]).

Consider `CC[C@H](C)[C@H](NC(=O)[C@@H](NC(=O)[C@H](CCSC)NC(=O)[C@H](CC(=O)O)NC(=O)[C@H](CO)NC(=O)[C@H](CCC(=O)O)NC(=O)[C@H](CC(C)C)NC(=O)[C@@H](NC(=O)CNC(=O)[C@H](CC(N)=O)NC(=O)[C@H](CO)NC(=O)[C@H](Cc1c[nH]c2ccccc12)NC(=O)[C@H](CC(C)C)NC(=O)[C@@H](NC(=O)[C@@H](N)Cc1c[nH]cn1)[C@@H](C)O)C(C)C)[C@@H](C)CC)C(=O)O` [NS1 229-243], for which the IC50 at DRB1*0101 was 10700 nM; on DRB1*0301 it was 0.17 µM; on DRB1*0401, 178 nM; at DRB1*0404 (setting [5]) it was more than 20000 nM; at DRB1*0405, 7660 nM; at DRB1*0701, 7.63 µM. For the same compound, the IC50 is 3790 nM on DRB1*0802; 15400 nM on DRB1*0901 (setting [6]); more than 20000 nM at DRB1*1101 (setting [3]); 1000 nM at DRB1*1302 (setting [7]); 8960 nM against DRB1*1501; more than 20000 nM on DRB5*0101 (setting [1]).

These data come from article PMC3794980, “Identification of Conserved and HLA Promiscuous DENV3 T-Cell Epitopes” (PLoS Neglected Tropical Diseases, 2013).
